Experimental data as given in patent US9458141B2, “Low molecular weight thyroid stimulating hormone receptor (TSHR) agonists” (The United States of America, as represented by the …, priority 2008, dated 2016).

Chains of the proteins cited; added tags and fusions are not shown. Residues count along the entry.
UniProt P47750, 22-764: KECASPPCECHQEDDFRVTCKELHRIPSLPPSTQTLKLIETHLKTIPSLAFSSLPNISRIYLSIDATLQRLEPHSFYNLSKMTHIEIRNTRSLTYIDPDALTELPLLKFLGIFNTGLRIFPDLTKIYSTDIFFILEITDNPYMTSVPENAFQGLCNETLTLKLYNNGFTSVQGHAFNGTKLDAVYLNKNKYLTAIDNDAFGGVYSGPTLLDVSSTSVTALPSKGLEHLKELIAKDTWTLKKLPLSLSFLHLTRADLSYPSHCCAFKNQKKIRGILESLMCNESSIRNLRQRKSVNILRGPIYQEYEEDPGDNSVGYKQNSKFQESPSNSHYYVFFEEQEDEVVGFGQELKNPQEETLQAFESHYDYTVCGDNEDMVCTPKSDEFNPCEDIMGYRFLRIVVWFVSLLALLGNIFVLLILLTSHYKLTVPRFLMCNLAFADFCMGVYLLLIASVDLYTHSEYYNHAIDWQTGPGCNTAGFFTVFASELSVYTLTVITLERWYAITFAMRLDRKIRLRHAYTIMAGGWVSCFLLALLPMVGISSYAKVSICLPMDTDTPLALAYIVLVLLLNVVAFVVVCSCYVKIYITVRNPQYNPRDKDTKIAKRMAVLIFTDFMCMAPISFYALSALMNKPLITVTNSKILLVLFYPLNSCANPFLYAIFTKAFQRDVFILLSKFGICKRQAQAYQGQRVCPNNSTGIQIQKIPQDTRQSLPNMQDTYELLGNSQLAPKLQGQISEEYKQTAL

Target: T1, TSHR (Mus musculus, UniProt P47750)
T1 construct: from tissue; host or cells: whole animal, C57 BL/6 mice (thyroid TSHR); read-out is serum total T4
Experiment: In vivo TSHR activation in mice, serum total thyroxine (T4)
Conditions: C57 BL/6 mice, intraperitoneal injection, 20 ug compound or 30 ug TSH, 2 hours after administration
Protocol: We have shown in vitro using transfected cells that compounds disclosed herein activate the mouse TSHR with similar potency and efficacy as human TSHR. Because the known physiology of TSHRs is similar in mice and humans, in vivo studies in mice offer an ideal preclinical model for assessing possible clinical applications for these compound disclosed herein. We determined if one compound disclosed herein can activate TSHR when administered by intraperitoneal injection. 20 ug of the compound disclosed herein and 30 ug TSH in PBS containing 2% DMSO were administered to unanesthetized C57 BL/6 mice. The experimental endpoint was total thyroxine (T4) measurement in serum obtained from terminal retroorbital bleeds from anesthetized mice 2 hours after administration of the compound or TSH. Total T4 levels did rise after injection of TSH and of the compound disclosed herein.

## TSH: "Thyroid-stimulating hormone (TSH) is a heterodimeric glycoprotein hormone that regulates thyroid homeostasis"
  total T4 levels in serum: did rise
